Among the data in ChEMBL document CHEMBL1155538 (Bioorg Med Chem Lett, 2010) are IC50 and t1/2 values, retold here.

Chains of the proteins cited; added tags and fusions are not shown. Lines headed by an entry give the natural chain unless they say otherwise; changes in a name come on top.
UniProt Q12809: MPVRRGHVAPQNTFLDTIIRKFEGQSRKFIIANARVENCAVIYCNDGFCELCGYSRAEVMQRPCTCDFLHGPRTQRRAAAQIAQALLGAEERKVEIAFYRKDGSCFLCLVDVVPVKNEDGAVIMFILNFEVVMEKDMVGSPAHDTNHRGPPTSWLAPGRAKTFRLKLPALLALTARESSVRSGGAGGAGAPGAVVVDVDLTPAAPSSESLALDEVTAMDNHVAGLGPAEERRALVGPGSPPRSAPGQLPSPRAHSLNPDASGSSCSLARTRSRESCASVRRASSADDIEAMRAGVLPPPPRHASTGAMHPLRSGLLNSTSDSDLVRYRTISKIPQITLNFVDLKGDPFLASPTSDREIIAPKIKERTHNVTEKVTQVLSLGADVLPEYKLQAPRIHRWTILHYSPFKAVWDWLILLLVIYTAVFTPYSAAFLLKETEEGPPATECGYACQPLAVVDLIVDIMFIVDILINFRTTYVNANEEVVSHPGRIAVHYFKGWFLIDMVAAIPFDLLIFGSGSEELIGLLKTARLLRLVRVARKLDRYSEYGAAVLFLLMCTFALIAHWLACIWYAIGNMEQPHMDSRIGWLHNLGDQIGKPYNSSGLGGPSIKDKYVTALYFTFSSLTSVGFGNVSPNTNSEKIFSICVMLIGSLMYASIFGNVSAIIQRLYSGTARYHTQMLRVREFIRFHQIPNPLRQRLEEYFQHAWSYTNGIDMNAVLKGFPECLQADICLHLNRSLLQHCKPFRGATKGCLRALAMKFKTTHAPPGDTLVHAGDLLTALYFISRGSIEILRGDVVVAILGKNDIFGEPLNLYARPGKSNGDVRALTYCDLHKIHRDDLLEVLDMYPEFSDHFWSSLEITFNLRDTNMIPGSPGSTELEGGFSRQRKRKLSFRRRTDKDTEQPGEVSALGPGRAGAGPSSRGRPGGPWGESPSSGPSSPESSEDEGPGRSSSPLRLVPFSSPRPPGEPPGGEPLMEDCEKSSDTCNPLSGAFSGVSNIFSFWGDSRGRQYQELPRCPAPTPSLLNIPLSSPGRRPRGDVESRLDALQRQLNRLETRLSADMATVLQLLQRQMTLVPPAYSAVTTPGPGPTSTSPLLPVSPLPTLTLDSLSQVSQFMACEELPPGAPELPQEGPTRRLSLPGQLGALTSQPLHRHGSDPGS

A short description of data set [1]: Inhibition of tetrodotoxin-sensitive sodium channel.
Data set [2] deals with Voltage-gated inwardly rectifying potassium channel KCNH2 (Homo sapiens, UniProt Q12809). Nature of the data set: Displacement of [3H]dofetilide from human ERG.
Data set [3] concerns Liver microsomes. Nature of the data set: Half life in human liver microsomes. The format is ADME, Microsome.

On to `Fc1cccc(OC(F)F)c1CC(c1ccccc1)N1CCNCC1` (stereo not drawn), for which the IC50 in data set [1] is 1.83 µM; in data set [2] it was 10.4 µM. Regarding `COc1cccc(F)c1CC(c1ccccc1)N1CCNCC1` (stereo not drawn), the t1/2 in data set [3] was 1.55 h.
